Among the data in paper PMC3821307 are (In−I0)/I0 [%] values, retold here.

In assay [1] the target is His6-RAGE VC1 natural domain. The assay is described as follows: electrochemical biosensor (Osteryoung square-wave voltammetry of the Cu(II) redox current); His6-RAGE VC1 immobilised on a gold electrode through NAC/DPTA-Cu(II); Aβ1–40 (0.001-1 μM) in filtered human plasma diluted twice with TRIS buffer (50 mM TRIS hydrochloride, 300 mM NaCl, pH 7.4); response (In−I0)/I0 × 100%; n = 7.

Assay [2] addresses His6-RAGE VC1 natural domain. The assay is described as follows: electrochemical biosensor (Osteryoung square-wave voltammetry of the Cu(II) redox current); His6-RAGE domain immobilised on a gold electrode through NAC/DPTA-Cu(II); 10 μL peptide (0.001-1 μM) deposited for 30 min; 50 mM TRIS hydrochloride, 300 mM NaCl, pH 7.4; room temperature; response (In−I0)/I0 × 100%; n = 7.

With “Aβ1–40 peptide (from UniProt P05067 672-711)”, in assay [1], the (In−I0)/I0 [%] at 0.001 μM is -14%, the (In−I0)/I0 [%] at 0.01 μM was -23.9%, the (In−I0)/I0 [%] at 0.1 μM is -32.2% and the (In−I0)/I0 [%] at 1 μM is -41.2%. Further, in assay [2], the (In−I0)/I0 [%] at 0.001 μM is -10.1%, the (In−I0)/I0 [%] at 0.01 μM is -17.4%, the (In−I0)/I0 [%] at 0.1 μM is -24.2% and the (In−I0)/I0 [%] at 1 μM was -32.4%.
